Among the data in PMC9455167 are Kd values, retold here.

This assay addresses Src kinase (UniProt P12931).

As usually defined, the Kd is the concentration at which binding is half-saturated. Low readings indicate tighter binding, high ones weaker binding.

Consider Na,K-ATPase (from UniProt P05023), for which the dissociation constant Kd worked out at 200 nM.
